scFv variants of Ab-14 (heavy chain) against a SARS-CoV-2 spike peptide

The measurements come from Engelhart et al. 2022 (doi:10.1038/s41597-022-01779-4) through the FLAb antibody collection.

The target is the same throughout: PDVDLGDISGINAS, from the HR2 region of SARS-CoV-2 spike.

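The starting antibody came from a phage panning campaign against this peptide. In library AAYL49, one, two or three CDR residues were substituted; doubles and triples were drawn at random. The scFvs were displayed on barcoded MATa yeast, the peptide on MATalpha yeast. Pairs that bind mate more often; barcode pairs of the diploids are counted by sequencing. Each replicate has its own calibration line, from reference interactions of the BCL2 family. The assay was run in three technical replicates.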

The variants keep the light chain, the linker and the frameworks of Ab-14 (scFv order VH, a 15-residue (Gly4Ser)3 linker, VL).
VH: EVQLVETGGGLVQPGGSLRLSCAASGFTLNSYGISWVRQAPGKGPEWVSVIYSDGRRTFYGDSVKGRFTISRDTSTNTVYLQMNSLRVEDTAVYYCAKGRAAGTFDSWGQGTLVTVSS
VL: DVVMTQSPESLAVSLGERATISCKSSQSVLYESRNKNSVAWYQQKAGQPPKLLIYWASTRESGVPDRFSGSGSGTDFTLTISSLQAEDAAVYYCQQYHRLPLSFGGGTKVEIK

Each variant is given by its three heavy chain CDRs, as the data file delimits them; those of the parent are GFTLNSYGIS, VIYSDGRRTFYGDSVK, GRAAGTFDS. This list gathers variants with a substitution at D54 (VH, numbered from residue 1). Values are apparent Kd, the geometric mean of the replicates that gave a signal; lower means stronger binding. "no signal" means that the variant was in the library but no mating with the target was seen in any replicate; the authors take this as a sign of poor binding, and no number exists. For reference, the parent read 4.4 nM as the reference entry and 13 µM (one replicate of three) as a member of this library. Nonspecific signal, from three strains lacking the peptide, appeared in 15% of pairings of library AAYL49, centred on 11 µM (5% of these signals below 680 nM); values are not corrected for it.

For GFTLNSYGIS / VNYSSGRRTFYGDSVK / GRAAGGFDS, the assay gave no signal (0 of 3 replicates). Variant GMTLNSYGIS / VIYSYGRRTFYGDSVK / ARAAGTFDS showed 1.5 µM (1 of 3 replicates). For GFTLNSYGIL / VIYSWGRRTFCGDSVK / GRAAGTFDS, the assay gave no signal (0 of 3 replicates). Variant GFTLNSYGIS / HIYETGRRTFYGDSVK / GRAAGTFDS showed 72 µM (1 of 3 replicates). Variant GMTLNSYGIS / VIYIVGRRTFYGDSVK / GRAAGTFDS showed no signal (0 of 3 replicates). With GFTLNSYGIS / VIYSWGRQTFYGDSWK / GRAAGTFDS the result was 11 µM (3 of 3 replicates). Variant GFTLNSYGIS / VIYSWGRRMFTGDSVK / GRAAGTFDS gave 1.3 mM (1 of 3 replicates). For GFVLNSYGIS / VIYSHGRRTCYGDSVK / GRAAGTFDS, the assay gave no signal (0 of 3 replicates).

Variant GFTLNSYGIS / VIQSKGRRTFYWDSVK / GRAAGTFDS gave no signal (0 of 3 replicates). With GFTLNSYGIS / VIYSWGRRTFYGDVVK / GRAAGTFDS the result was 2.3 µM (1 of 3 replicates). Variant GFTLNSYGIT / VIYSTGRRTFYGDSVC / GRAAGTFDS gave 660 µM (1 of 3 replicates). For GFTLNSYGIS / VIYSNGRRTFYGDLVK / GRAAPTFDS, the assay gave no signal (0 of 3 replicates). For GFTLNSYGIS / VIYSFHRRTFRGDSVK / GRAAGTFDS, the assay gave no signal (0 of 3 replicates). Variant GFTLNSYGIS / VIYSEGRRTFYGDSVK / GRPHGTFDS gave 14 µM (1 of 3 replicates). For GFTLNSYGIS / CIYSMGRRTFYGDSVK / GRPAGTFDS, the assay gave 90 µM (1 of 3 replicates). For GFTFNSYGIS / VIYSEGRRTFYGDSVW / GRAAGTFDS, the assay gave 5.1 µM (2 of 3 replicates).

With GFFLNSYGIS / VIYSPGRRTKYGDSVK / GRAAGTFDS the result was 4.1 µM (2 of 3 replicates). Variant GFTLNSYGIS / VIYSTGRRTFYGDSVK / GRAAFTFDS showed no signal (0 of 3 replicates). Variant GFTLNSYGIS / VIYSYGRRTSDGDSVK / GRAAGTFDS gave no signal (0 of 3 replicates). Variant GFTLNSYGIS / VIYSCGTRTFYGDSPK / GRAAGTFDS showed no signal (0 of 3 replicates). With GFTLNSYGIS / VIYSNGLRTFYGDSVK / GRNAGTFDS the result was 390 nM (3 of 3 replicates). With GFYLNSYGIW / VIYSHGRRTFYGDSVK / GRAAGTFDS the result was 12 µM (1 of 3 replicates). Variant GFTLNSYGIS / VIYSYGRRTFRGDSVK / GRASGTFDS gave no signal (0 of 3 replicates). Variant GFTLNSYEIS / VIYSQGRRTFYGDSVK / GRAAGTEDS gave no signal (0 of 3 replicates).

With GFTLNSYGIS / VKYSVGRRTFNGDSVK / GRAAGTFDS the result was 80 µM (2 of 3 replicates). For GFTLRSYGIS / VILSLGRRTFYGDSVK / GRAAGTFDS, the assay gave 5.4 µM (1 of 3 replicates). Variant GFTLNSYGIS / VIYSLGRRTFYGDSVK / NRAAGTFDS gave 180 µM (1 of 3 replicates). Variant GFTLNSYGIS / VIYSCGRRTFYGDSLK / GQAAGTFDS gave no signal (0 of 3 replicates). Variant GFTLNSYYIS / VIESYGRRTFYGDSVK / GRAAGTFDS showed 700 nM (1 of 3 replicates). With GFTLNSYGIS / FIYSAGRRTFYGDSVK / GRAAGTFDS the result was no signal (0 of 3 replicates). With GFTLNSYGIS / VIYSEGRRTFYGKSVK / GRAAGTFPS the result was no signal (0 of 3 replicates). Variant CFTLFSYGIS / VIYSFGRRTFYGDSVK / GRAAGTFDS showed no signal (0 of 3 replicates).

For GFRLNSYGIS / VIYSGGRRTFYGDSVK / GRAAGTFDS, the assay gave no signal (0 of 3 replicates). For GFVLNSYGIS / FIYSIGRRTFYGDSVK / GRAAGTFDS, the assay gave 110 µM (1 of 3 replicates). With TFTLNRYGIS / VIYSEGRRTFYGDSVK / GRAAGTFDS the result was no signal (0 of 3 replicates). Variant GFTLNSYGIS / VIYQKQRRTFYGDSVK / GRAAGTFDS gave no signal (0 of 3 replicates). Variant GATLNSYGIS / VIYSPGRRTFYGDSVY / GRAAGTFDS showed no signal (0 of 3 replicates). With GYTLNSYGIS / VIYSIGRRTFVGDSVK / GRAAGTFDS the result was no signal (0 of 3 replicates). With GFTLNSYGIS / VIESTGMRTFYGDSVK / GRAAGTFDS the result was no signal (0 of 3 replicates). Variant GFDLNSYGIS / VIYSVGRRTFYGDSVK / GRAALTFDS gave 4.0 µM (1 of 3 replicates).

Variant GFTLNSYGIS / VRYSQGRRTFYGDSVG / GRAAGTFDS gave no signal (0 of 3 replicates). Variant GFTLNSYGIS / VIYSYGRRTFYGDSVK / GRAFMTFDS gave no signal (0 of 3 replicates). For GFTLNSYGRS / VHYSRGRRTFYGDSVK / GRAAGTFDS, the assay gave 2.3 µM (1 of 3 replicates). For GFFLNSYGIS / VIYSQGRRTFYWDSVK / GRAAGTFDS, the assay gave no signal (0 of 3 replicates). With GATLNSYGIS / VIYSHGRRTFYGNSVK / GRAAGTFDS the result was 1.2 mM (1 of 3 replicates). Variant GFTLNSYGIS / VIYSMGRPTFYGDSVN / GRAAGTFDS gave 930 nM (1 of 3 replicates). For GFTLNSYYIS / VIYSPGRRTFYMDSVK / GRAAGTFDS, the assay gave no signal (0 of 3 replicates). Variant GQTLNSYGIS / VIYSLGRRTFYGQSVK / GRAAGTFDS showed 2.0 µM (1 of 3 replicates).

Variant GFTLNSYHIS / VIYSAGRRTFYGDSVK / GRAAGTFDR showed 7.8 µM (1 of 3 replicates).

The first 3 variants above that were never detected:

| CDR-H1 | CDR-H2 | CDR-H3 | Kd | seen in |
|---|---|---|---|---|
| GFTLNSYGIS | VNYSSGRRTFYGDSVK | GRAAGGFDS | no signal | 0/3 |
| GFTLNSYGIL | VIYSWGRRTFCGDSVK | GRAAGTFDS | no signal | 0/3 |
| GMTLNSYGIS | VIYIVGRRTFYGDSVK | GRAAGTFDS | no signal | 0/3 |